{"sequences": {"note": "Protein sequences, listed by entry. Tags and fused reporters are not part of them.", "UniProt P68400, whole entry": "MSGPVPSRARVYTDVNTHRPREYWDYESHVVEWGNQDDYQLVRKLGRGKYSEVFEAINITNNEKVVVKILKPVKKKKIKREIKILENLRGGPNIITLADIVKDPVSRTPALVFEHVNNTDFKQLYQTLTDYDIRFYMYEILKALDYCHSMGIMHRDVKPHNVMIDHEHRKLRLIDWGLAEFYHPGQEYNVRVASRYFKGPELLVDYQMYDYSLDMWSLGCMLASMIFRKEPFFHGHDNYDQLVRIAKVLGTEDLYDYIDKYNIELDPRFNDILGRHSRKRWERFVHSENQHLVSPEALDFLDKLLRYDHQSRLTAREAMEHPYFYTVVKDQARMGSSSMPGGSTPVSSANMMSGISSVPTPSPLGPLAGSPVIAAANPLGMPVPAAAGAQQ"}, "source": "ChEMBL document CHEMBL1955824", "about": "“Indeno[1,2-b]indole derivatives as a novel class of potent human protein kinase CK2 inhibitors” (Bioorg Med Chem, 2012)", "biological_target": "Casein kinase II alpha/beta (Homo sapiens, UniProt P68400)", "experiment": "Inhibition of human CSNK2A1/2B expressed in Escherichia coli BL21(DE3) using RRRDDDSDDD as substrate after 15 mins by scintillation counting"}
{"smiles": "Cc1cc(O)c2c(c1)C(=O)c1cc(O)cc(O)c1C2=O", "note": "[EMODIN]", "values": [{"measurement": "IC50", "result": 460, "unit": "nM"}]}
